Measured values from patent US8628750B2, “Cancer imaging and treatment” (Technische Universitat Munchen, priority 2006, dated 2014).

Chains of the proteins cited; added tags and fusions are not shown.
UniProt P61073, whole entry: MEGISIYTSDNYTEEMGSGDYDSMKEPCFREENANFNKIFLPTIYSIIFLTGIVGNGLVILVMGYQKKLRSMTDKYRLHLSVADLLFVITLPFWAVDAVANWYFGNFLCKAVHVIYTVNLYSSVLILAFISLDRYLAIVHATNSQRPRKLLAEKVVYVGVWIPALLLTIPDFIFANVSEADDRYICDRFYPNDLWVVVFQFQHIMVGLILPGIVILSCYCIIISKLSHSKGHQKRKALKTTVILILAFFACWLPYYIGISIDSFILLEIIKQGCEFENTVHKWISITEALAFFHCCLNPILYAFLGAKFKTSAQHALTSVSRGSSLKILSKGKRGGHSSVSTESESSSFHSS

Molecular target: human CXCR4 (Homo sapiens, UniProt P61073)
Test: cell-based
Format: binding
Parameters: Jurkat cells that endogenously express the CXCR4 receptor; endogenous in cells; host or cells: Jurkat (ATCC)
Experimental: For receptor binding assays cells were resuspended in PBS/0.2% BSA. […] Cell bound radioactivity was determined by using a gamma counter.

Row | IC50 | SMILES
1 | > 1000 nM | NC(=O)NCCC[C@@H]1NC(=O)[C@H](CCCNC(N)=O)NC(=O)[C@@H](Cc2ccc(O)cc2)NC(=O)CNC(=O)[C@H](Cc2ccc3ccccc3c2)NC1=O [OD26, cyc[Nal-Gly-D-Tyr-Cit-Cit]]
2 | ~1000 nM | C[C@H]1NC(=O)[C@H](CCCNC(=N)N)NC(=O)[C@H](CCCNC(=N)N)NC(=O)[C@@H](Cc2ccc(O)cc2)NC(=O)CNC(=O)[C@H](Cc2ccc3ccccc3c2)NC1=O [BL 37, cyc[D-Tyr-Arg-Arg-D-Ala-Nal-Gly]]
3 | > 1000 nM | CN1CC(=O)N[C@H](Cc2ccc(O)cc2)C(=O)N[C@@H](CCCNC(=N)N)C(=O)N[C@@H](CCCNC(=N)N)C(=O)N(C)[C@@H](Cc2ccc3ccccc3c2)C1=O [OD18, cyc[Arg-(Me)Nal-(Me)Gly-D-Tyr-Arg]]
4 | > 1000 nM | C[C@@H]1NC(=O)[C@H](Cc2ccc3ccccc3c2)N(C)C(=O)[C@H](CCCNC(=N)N)N(C)C(=O)[C@H](CCCNC(=N)N)NC(=O)[C@@H](Cc2ccc(O)cc2)NC(=O)CNC1=O [BL86, cyc[(Me)Arg-(Me)Nal-Ala-Gly-D-Tyr-Arg]]
